Assay results: ChEMBL document CHEMBL1155807, “Synthesis, biological evaluation, and enzyme docking simulations of 1,5-diarylpyrrole-3-alkoxyethyl ethers as selective cyclooxygenase-2 inhibitors endowed with anti-inflammatory and antinociceptive activity” (J Med Chem, 2008)

Protein sequences, listed by entry. Tags and fused reporters are not part of them.
UniProt P23219, whole entry: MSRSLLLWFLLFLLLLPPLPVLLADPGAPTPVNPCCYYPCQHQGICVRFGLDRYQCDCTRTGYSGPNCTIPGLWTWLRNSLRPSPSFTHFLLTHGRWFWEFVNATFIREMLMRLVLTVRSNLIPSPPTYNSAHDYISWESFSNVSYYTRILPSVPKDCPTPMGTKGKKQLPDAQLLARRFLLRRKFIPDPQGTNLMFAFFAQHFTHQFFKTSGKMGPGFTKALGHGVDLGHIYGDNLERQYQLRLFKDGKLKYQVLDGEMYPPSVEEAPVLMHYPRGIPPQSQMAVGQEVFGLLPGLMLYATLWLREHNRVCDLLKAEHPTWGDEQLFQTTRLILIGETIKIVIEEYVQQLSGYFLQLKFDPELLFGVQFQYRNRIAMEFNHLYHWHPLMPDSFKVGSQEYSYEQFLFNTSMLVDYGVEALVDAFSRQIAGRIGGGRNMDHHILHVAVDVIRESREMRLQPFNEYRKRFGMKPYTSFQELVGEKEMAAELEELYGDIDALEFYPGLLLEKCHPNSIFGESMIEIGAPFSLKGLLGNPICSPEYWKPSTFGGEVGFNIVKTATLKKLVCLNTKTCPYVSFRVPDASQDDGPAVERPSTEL

Target: Prostaglandin G/H synthase 1 (Homo sapiens, UniProt P23219)
Experiment: Inhibition of COX1 in LPS-induced human whole blood assessed as PGE2 production

IC50: 34.3 µM
SMILES: Cc1onc(-c2ccccc2)c1-c1ccc(S(N)(=O)=O)cc1 [VALDECOXIB]
